ChEMBL document CHEMBL1153781, “Prediction of volume of distribution values in human using immobilized artificial membrane partitioning coefficients, the fraction of compound ionized and plasma protein binding data” (Eur J Med Chem, 2009)

Experiment: Dissociation constant, pKa of the compound
Assay type: physicochemical

## CCC[C@@H]1C[C@@H](C(=O)N[C@@H]([C@H]2O[C@H](SC)[C@H](O)[C@@H](O)[C@H]2O)[C@@H](C)O)N(C)C1 [LINCOMYCIN]
  pKa: 7.65
